We go through 24 compounds from PubChem BioAssay AID1817 (Sanford-Burnham Center for Chemical Genomics, 2009).

Amino acid sequences for entries named in this document (tags omitted).
UniProt Q8IUQ4, whole entry: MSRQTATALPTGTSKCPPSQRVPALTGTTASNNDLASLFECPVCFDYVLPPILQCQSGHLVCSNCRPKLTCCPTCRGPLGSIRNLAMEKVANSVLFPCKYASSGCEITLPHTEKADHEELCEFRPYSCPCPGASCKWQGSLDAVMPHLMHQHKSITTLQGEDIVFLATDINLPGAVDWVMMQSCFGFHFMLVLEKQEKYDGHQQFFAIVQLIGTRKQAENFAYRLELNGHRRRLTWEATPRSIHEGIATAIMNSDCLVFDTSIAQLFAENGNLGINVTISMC
UniProt Q15149, whole entry partner: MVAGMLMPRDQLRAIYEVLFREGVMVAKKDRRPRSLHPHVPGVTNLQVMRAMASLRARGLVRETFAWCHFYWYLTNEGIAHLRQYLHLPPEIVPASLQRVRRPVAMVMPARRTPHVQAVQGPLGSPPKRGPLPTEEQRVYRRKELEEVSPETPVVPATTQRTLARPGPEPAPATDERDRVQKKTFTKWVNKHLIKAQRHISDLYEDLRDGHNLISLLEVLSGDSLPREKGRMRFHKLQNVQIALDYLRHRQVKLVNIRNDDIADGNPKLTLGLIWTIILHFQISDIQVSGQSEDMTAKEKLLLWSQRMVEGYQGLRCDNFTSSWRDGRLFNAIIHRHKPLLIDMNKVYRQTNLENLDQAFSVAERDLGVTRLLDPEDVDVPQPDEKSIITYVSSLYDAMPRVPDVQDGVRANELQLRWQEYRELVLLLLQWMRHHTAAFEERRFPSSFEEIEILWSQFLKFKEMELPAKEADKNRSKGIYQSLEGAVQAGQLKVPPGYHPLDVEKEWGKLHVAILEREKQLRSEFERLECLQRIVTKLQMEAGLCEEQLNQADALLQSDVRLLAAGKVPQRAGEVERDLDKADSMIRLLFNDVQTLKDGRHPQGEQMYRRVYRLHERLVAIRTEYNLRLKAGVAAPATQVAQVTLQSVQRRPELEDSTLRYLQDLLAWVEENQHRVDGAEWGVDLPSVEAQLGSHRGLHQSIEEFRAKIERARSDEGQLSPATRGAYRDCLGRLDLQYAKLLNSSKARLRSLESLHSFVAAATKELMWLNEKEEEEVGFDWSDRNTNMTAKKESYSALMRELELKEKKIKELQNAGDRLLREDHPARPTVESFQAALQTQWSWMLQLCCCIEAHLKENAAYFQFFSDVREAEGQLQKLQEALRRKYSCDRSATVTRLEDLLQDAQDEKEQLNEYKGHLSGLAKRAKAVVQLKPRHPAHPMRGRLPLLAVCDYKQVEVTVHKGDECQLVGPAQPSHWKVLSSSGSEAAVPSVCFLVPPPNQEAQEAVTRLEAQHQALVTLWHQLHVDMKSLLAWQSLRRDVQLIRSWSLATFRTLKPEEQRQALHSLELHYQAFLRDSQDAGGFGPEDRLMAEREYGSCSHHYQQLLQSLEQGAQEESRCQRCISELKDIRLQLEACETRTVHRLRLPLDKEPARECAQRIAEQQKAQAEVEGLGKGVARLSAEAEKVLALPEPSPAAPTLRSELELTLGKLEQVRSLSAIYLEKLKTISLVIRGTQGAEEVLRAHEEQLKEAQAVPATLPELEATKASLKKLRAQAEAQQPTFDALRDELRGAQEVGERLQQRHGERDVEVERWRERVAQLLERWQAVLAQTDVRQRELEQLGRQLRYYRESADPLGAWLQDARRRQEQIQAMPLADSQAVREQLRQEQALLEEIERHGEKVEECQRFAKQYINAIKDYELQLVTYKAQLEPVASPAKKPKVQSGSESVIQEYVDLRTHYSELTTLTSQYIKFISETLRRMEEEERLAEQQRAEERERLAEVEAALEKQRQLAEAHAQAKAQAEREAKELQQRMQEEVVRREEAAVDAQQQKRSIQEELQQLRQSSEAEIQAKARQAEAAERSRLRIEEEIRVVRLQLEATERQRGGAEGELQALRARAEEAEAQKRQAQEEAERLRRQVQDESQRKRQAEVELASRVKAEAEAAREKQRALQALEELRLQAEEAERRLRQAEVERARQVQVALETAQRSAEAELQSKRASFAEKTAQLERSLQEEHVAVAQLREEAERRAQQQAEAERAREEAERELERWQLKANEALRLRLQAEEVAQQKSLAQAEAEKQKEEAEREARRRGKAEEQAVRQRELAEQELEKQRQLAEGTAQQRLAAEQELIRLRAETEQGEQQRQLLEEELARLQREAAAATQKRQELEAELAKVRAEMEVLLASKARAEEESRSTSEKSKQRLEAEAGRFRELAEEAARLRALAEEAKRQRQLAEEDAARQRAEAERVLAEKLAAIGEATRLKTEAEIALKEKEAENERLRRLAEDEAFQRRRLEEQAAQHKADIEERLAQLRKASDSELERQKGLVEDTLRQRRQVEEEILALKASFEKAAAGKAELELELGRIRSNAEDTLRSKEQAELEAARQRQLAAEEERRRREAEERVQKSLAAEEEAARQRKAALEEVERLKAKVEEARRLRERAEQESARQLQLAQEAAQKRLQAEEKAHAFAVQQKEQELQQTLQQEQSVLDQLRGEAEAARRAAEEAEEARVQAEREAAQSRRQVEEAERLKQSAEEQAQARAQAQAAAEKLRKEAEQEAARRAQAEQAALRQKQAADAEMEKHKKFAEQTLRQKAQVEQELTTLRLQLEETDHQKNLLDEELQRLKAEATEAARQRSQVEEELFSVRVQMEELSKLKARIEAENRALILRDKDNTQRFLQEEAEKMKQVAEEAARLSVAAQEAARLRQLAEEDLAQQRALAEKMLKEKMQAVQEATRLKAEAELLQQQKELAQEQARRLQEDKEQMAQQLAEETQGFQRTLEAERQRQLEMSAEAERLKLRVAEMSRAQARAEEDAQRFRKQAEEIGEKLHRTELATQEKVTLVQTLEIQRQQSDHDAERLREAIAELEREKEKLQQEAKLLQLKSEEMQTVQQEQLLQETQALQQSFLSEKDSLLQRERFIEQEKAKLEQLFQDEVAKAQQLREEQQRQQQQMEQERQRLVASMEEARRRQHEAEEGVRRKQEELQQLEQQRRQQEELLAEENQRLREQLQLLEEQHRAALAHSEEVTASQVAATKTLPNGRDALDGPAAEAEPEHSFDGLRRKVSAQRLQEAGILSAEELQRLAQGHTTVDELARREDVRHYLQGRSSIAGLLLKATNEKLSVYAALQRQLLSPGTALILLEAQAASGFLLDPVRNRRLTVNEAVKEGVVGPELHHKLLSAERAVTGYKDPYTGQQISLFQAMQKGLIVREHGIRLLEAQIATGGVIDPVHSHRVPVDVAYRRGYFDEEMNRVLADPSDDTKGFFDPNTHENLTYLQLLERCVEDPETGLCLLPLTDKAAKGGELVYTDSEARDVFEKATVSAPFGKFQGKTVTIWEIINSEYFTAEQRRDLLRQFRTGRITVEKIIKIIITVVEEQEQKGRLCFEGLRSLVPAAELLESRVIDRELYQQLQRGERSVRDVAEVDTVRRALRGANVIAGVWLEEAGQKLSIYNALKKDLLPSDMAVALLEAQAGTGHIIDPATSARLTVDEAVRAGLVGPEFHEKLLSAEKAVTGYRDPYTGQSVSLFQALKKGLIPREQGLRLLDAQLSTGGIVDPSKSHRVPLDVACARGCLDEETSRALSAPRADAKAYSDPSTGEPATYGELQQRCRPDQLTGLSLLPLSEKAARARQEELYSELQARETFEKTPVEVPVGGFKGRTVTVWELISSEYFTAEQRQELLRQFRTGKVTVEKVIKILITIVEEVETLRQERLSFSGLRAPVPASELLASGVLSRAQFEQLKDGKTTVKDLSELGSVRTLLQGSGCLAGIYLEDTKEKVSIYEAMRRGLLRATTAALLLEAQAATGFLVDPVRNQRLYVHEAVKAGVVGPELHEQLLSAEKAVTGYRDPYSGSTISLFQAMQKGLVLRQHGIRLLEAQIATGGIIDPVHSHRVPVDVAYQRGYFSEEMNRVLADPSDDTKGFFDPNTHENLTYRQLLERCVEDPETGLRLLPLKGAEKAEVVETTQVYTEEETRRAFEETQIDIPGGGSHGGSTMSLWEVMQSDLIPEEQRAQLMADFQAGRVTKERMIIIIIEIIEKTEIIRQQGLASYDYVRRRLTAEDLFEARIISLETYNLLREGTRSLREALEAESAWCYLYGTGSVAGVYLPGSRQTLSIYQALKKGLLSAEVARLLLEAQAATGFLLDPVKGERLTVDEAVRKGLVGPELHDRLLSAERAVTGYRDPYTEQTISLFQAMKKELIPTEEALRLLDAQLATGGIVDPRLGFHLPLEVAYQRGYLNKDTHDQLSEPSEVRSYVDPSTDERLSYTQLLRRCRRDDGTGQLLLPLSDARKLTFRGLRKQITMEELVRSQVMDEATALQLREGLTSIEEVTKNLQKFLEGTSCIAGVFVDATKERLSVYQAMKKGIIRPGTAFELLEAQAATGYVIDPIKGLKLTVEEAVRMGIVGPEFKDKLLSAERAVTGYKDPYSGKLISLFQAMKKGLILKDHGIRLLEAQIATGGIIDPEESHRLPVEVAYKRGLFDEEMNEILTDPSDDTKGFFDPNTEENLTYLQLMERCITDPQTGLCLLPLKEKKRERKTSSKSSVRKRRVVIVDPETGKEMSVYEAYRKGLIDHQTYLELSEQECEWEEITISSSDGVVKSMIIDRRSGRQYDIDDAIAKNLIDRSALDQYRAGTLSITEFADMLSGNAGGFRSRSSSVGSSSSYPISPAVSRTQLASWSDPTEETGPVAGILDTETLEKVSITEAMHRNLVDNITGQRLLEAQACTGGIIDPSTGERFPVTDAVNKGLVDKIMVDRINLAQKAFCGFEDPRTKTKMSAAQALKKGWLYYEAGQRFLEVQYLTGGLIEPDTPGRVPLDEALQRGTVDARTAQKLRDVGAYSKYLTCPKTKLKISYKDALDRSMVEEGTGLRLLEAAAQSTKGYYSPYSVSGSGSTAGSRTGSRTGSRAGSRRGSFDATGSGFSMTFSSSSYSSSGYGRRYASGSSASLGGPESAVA

Only a part is listed here, and it is no random draw. Potency and affinity values are given separately. Some of these compounds have results that are not shown, active ones among them. Calls of active or inactive are those of the source.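 The calls were made as follows: active = displacement of at least 50% at 20 µM, with a fluorescence ratio check between 0.3 and a set limit; inactive = the rest.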

The experiment has as its target E3 ubiquitin-protein ligase SIAH1 (Homo sapiens) (UniProt Q8IUQ4). Description: blockers of Siah-1 interaction with plectin peptide – biochemical, fluorescence polarization, rhodamine-plectin, uHTS, primary screen (AID 1817).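 Also: plate controls were Siah plus tracer with DMSO for no effect and tracer alone without Siah for full effect.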 The note with it: Siah-1 / rhodamine-plectin peptide fluorescence polarization; at 20 µM; stronger effect = higher value.
With `CN1[C@@H]2CC[C@H]1CC(OC(=O)C(O)(c1ccccc1)c1ccccc1)C2` (some centres undefined), the displacement was inactive: 5.5%. For the compound `O=C(NCC1(N2CCCCC2)CCCCC1)c1cc([N+](=O)[O-])ccc1Cl`, the displacement is inactive: 0.9%.

With `Cc1ccc(C(=O)NCC2(N3CCCCC3)CCCCC2)cc1`, the displacement is inactive: 9.6%. Take `CC(C)N1C(=O)CC2(CCN(CCOC(=O)C(O)(c3ccccc3)c3ccccc3)CC2)C1=O`: the displacement is inactive: 1.5%. Under `CCN(CC)CC(C)C(C)OC(=O)C(O)(c1ccccc1)c1ccccc1` (centres undefined) stands inactive: 5.9%. Under `COc1cc(SC)ccc1C(=O)NCC1(N(C)C)CCCCC1` stands inactive: 3%; under `Cc1ccccc1C(=O)NCC1(N2CCCCC2)CCCCC1`, inactive: 1.6%; under `CN(C)C1CCCC1OC(=O)C(O)(c1ccccc1)c1ccccc1` (centres undefined), inactive: -0.7%. Turning to `CN(C)c1ccc(C(=O)NCC2(N(C)C)CCCCC2)cc1`, the displacement is inactive: 8.2%. For `Cc1cc(C(=O)NCC2(N3CCCCC3)CCCCC2)ccc1[N+](=O)[O-]`, the displacement is inactive: -3.1%. The value for `CCN1CCCC(OC(=O)C2(O)c3ccccc3C=Cc3ccccc32)C1` (centres undefined) was inactive: 7.8%. For `O=C(NCC1(N2CCCCC2)CCCCC1)c1cccc(Br)c1`, the displacement is inactive: -0.2%. On to `COc1ccc(C(=O)NCC2(N(C)C)CCCCC2)cc1`, for which the displacement was inactive: -2.3%. Under `C=CCN1CCN(CCOC(=O)C(O)(c2ccccc2)c2ccccc2)CC1` stands inactive: -0.5%; under `O=C(NCC1(N2CCCCC2)CCCCC1)c1cc(F)c(F)cc1Cl`, inactive: 6.4%. As to `COc1cc(C(=O)NCC2(N(C)C)CCCCC2)c([N+](=O)[O-])cc1OC`, the displacement was inactive: -6.1%. Take `CN(C)C1(CNC(=O)c2ccc(Br)cc2)CCCCC1`: the displacement was inactive: -3.6%. The value for `O=C(NCC1(N2CCCCC2)CCCCC1)c1cccc(Cl)c1` was inactive: -1.2%; that for `COc1cccc(C(=O)NCC2(N3CCCCC3)CCCCC2)c1` was inactive: -4.8%. In the case of `COc1ccc(Cl)cc1C(=O)NCC1(N(C)C)CCCCC1`, the displacement is inactive: 5.6%.

For `O=C(OC1CN2CCC1CC2)C(CO)(c1ccccc1)c1ccccc1` (centres undefined), the displacement is inactive: -0.3%.

Regarding `CN(C)c1cccc(C(=O)NCC2(N(C)C)CCCCC2)c1`, the displacement is inactive: -1%.

`CC(C)Oc1ccc(C(=O)NCC2(N(C)C)CCCCC2)cc1`: the displacement was inactive: -0.2%. As for `COc1ccc(Br)c(C(=O)NCC2(N3CCCCC3)CCCCC2)c1`, the displacement was inactive: -1.2%.
